Source: publication PMC12595434, “Development of retinoid nuclear receptor pathway antagonists through targeting aldehyde dehydrogenase 1A3” (iScience, 2025)

The chains behind the UniProt entries cited, without tags or fusion partners.
UniProt Q9JHW9, whole entry: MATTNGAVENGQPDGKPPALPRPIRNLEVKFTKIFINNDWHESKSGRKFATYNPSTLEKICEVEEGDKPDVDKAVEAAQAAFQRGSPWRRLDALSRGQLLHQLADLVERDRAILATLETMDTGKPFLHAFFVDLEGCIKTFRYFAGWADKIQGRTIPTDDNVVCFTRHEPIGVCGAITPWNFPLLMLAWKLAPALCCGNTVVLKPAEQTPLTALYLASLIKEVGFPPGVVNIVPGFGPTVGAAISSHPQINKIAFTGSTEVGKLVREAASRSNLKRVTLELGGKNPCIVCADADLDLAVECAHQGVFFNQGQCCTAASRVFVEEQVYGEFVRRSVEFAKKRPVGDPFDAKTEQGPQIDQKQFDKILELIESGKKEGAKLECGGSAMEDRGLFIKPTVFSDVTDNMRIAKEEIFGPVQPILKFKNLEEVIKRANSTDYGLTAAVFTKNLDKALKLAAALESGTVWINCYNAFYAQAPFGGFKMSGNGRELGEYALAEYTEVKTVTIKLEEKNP
UniProt P47895, whole entry: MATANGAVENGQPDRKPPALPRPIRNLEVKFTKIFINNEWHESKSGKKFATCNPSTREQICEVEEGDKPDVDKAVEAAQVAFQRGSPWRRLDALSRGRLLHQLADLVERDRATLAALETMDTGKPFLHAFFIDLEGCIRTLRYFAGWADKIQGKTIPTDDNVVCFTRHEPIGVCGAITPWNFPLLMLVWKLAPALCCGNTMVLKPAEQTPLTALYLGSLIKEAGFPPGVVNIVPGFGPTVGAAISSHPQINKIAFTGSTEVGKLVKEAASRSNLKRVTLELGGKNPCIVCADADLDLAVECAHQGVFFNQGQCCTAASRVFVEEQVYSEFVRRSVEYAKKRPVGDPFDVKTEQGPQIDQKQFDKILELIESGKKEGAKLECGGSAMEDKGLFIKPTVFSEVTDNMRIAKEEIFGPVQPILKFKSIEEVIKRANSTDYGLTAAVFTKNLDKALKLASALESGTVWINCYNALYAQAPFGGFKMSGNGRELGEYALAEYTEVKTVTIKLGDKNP

How the values were obtained:
mouse ALDH1A3 = mouse ALDH1A3 (Mus musculus, UniProt Q9JHW9); experiment: Recombinant enzyme activity assay; conditions: read-out: IC50 molecular, mouse ALDH1A3; recombinant activity assay (Table 1)
human ALDH1A3 [1] = target: T1, human ALDH1A3 (Homo sapiens, UniProt P47895); experiment: Recombinant enzyme activity assay; conditions: read-out: IC50 molecular, human ALDH1A3; recombinant activity assay (Table 1)
[2] = test system: endogenous ALDH1A3 in MDA-MB-468 cells; experiment: Quantification of atRA in cells; type: cell-based, human; conditions: 24 h, dose titration
human ALDH1A3 [3] = target: T1, human ALDH1A3; experiment: Microscale thermophoresis (MST) binding; conditions: read-out: Microscale thermophoresis; biophysical assay (Table 1)
[4] = target: human ALDH1A3 in A375 cells (Homo sapiens, UniProt P47895); experiment: Aldefluor assay in A375 cells; conditions: read-out: EC50 cellular, human ALDH1A3
[5] = target: ALDH1A3 in SUM159-M1a-ALDH1A3 cells (Homo sapiens, UniProt P47895); experiment: Aldefluor dose titration in SUM159-M1a-ALDH1A3 cells; conditions: compared with MBE1.5A, C, or D
purified human ALDH1A3 = purified human ALDH1A3 (Homo sapiens, UniProt P47895); experiment: Nanoscale differential scanning fluorimetry (DSF); conditions: data not shown

CC(C)c1ccccc1C(=O)Nc1cc2c(cc1F)NC(=O)CC2
IC50 (mouse ALDH1A3): 1850 nM
IC50 (human ALDH1A3 [1]): 2710 nM
reduction of atRA formation (in words) [2]: higher IC50
Kd (human ALDH1A3 [3]): 1800 nM
EC50 [4]: 155 nM
potency in Aldefluor dose titration (in words) [5]: far less potent
thermal stabilization of purified ALDH1A3 (in words) (purified human ALDH1A3): little stabilization
